Experimental data taken from ChEMBL document CHEMBL3102835, “Dimeric unnatural polyproline-rich peptides with enhanced antibacterial activity” (Bioorg Med Chem Lett, 2014).
≈ marks a conversion by molar mass, not a printed value.

Experiments:
[1] = tested on: Escherichia coli; assay: Antibacterial activity against Escherichia coli by broth microdilution method; type: functional
In short: (§1)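 Broth microdilution. E. coli ATCC 25922 or S. aureus ATCC 25923 grown to mid-exponential phase in TSB at 37 °C, 200 rpm. MIC taken as the lowest concentration with no growth.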

[2] = tested on: Staphylococcus aureus; assay: Antibacterial activity against Staphylococcus aureus by broth microdilution method; type: functional; in short: as §1

SMILES: CC[C@H](C)[C@H](NC(=O)CN)C(=O)NCC(=O)N[C@@H](C)C(=O)N[C@H](C(=O)N[C@@H](CC(C)C)C(=O)N[C@@H](CCCCN)C(=O)N[C@H](C(=O)N[C@@H](CC(C)C)C(=O)N[C@H](C(=O)N[C@H](C(=O)NCC(=O)N[C@@H](CC(C)C)C(=O)N1CCC[C@H]1C(=O)N[C@@H](C)C(=O)N[C@@H](CC(C)C)C(=O)N[C@H](C(=O)N[C@@H](CO)C(=O)N[C@@H](Cc1c[nH]c2ccccc12)C(=O)N[C@H](C(=O)N[C@@H](CCCCN)C(=O)N[C@@H](CCCNC(=N)N)C(=O)N[C@@H](CCCCN)C(=O)N[C@@H](CCCNC(=N)N)C(=O)N[C@@H](CCC(N)=O)C(=O)N[C@@H](CCC(N)=O)C(N)=O)[C@@H](C)CC)[C@@H](C)CC)[C@@H](C)O)[C@@H](C)O)C(C)C)C(C)C [MELITTIN]
- MIC [1]: 4.6 µM (≈ 13.1 µg/mL)
- MIC [2]: 2.1 µM (≈ 5.98 µg/mL)
